Assay [1] concerns the target LOXL2 (Homo sapiens (Human), UniProt Q9Y4K0). The experiment in a line: LOXL2 enzyme activity assay (ROS-Glo; pre-incubation 20 min Method (a), 60 min Method (b), 20 h Method (c)). Format: biochemical. To be noted: read-out: LOXL2 IC50 b) 1 hr.
The test system of assay [2] is EGF-stimulated AKT phosphorylation in MDA-MB-231 cells. As to the kind of experiment: AKT activation assay (pS473AKT/total AKT ELISA). To be noted: 20 μM compound. A general note: ELISA stands for enzyme-linked immunosorbent assay.
Assay [3] concerns the target MAO-B (Homo sapiens (Human), UniProt P27338). As to the kind of experiment: Monoamine oxidase B (MAO-B) selectivity assay. Particulars: for IC50: read-out: MAO B IC50.
Assay [4] has as its target MAO-A (Homo sapiens (Human), UniProt P21397). The experiment in a line: Monoamine oxidase A (MAO-A) selectivity assay. Type of assay: biochemical.

By UniProt entry, the sequences of proteins in these tests, tags left out. Residues count along the entry.
UniProt Q9Y4K0, 26-774, species assumed: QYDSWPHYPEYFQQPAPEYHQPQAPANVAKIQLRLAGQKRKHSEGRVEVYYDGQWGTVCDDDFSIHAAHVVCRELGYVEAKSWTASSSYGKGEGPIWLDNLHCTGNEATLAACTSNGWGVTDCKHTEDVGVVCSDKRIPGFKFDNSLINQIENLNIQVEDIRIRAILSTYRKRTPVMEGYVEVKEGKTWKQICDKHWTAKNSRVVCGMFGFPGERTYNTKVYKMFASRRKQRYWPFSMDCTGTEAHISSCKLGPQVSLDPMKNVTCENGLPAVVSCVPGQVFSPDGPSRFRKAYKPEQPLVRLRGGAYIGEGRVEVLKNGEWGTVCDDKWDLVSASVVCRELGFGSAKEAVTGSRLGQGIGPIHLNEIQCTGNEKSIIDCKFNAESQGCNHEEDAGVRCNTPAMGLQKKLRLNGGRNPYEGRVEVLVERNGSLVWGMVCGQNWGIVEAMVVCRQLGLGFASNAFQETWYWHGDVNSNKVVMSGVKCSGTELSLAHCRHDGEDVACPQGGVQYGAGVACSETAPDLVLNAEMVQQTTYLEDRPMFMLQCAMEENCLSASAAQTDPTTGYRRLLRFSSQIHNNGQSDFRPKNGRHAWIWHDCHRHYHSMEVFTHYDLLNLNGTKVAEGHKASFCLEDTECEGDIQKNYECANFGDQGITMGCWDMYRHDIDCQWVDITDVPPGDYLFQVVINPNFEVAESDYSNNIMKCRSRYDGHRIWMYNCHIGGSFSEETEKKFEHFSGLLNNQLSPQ
UniProt P27338, whole entry: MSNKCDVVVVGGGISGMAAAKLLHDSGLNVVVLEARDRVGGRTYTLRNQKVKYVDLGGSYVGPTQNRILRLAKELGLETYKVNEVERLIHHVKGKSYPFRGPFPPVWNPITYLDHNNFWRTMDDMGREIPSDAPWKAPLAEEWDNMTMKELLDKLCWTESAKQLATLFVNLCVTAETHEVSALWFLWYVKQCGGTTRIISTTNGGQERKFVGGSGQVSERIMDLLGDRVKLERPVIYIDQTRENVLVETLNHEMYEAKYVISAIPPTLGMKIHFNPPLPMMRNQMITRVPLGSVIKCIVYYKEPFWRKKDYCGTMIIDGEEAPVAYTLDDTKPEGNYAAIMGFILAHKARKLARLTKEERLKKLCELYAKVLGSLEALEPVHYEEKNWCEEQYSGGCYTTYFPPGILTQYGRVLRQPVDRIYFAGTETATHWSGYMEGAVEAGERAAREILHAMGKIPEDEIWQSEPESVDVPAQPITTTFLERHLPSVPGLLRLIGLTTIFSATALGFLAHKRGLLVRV
UniProt P21397, whole entry: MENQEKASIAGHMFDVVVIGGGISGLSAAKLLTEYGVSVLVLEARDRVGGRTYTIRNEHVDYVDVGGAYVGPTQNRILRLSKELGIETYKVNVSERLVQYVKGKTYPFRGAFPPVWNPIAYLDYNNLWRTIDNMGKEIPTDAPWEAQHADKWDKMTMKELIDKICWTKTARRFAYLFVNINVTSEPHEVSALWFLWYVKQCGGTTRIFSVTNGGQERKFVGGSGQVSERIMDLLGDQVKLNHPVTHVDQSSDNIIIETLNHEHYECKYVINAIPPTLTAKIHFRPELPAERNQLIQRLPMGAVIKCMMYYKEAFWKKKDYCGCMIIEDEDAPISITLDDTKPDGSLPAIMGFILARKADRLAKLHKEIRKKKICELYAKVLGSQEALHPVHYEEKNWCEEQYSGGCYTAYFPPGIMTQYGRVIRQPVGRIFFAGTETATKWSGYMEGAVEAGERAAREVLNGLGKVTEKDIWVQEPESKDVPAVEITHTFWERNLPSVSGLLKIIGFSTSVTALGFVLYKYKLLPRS

Bounds are passed on as bounds.

As usually defined, the IC50 is the concentration at which inhibition is half-maximal. Consider `CC(C)(C)c1cc(-c2ccccc2)cc(S(=O)(=O)c2cnc(CN)s2)c1`, for which, in assay [1], the IC50 is 1.26 µM. For `CS(=O)(=O)c1cc(-c2ccccc2)cc(S(=O)(=O)c2ccc(CN)s2)c1` [drawing 384], the “pAKT/AKT % inhibited vs control in MDA-MB231 cells” value in assay [2] is reported as 39%.

Consider `Cc1ccc(-c2cccc(S(=O)(=O)c3cnc(CN)s3)c2)cc1`, for which the IC50 is 17 µM in assay [3] and 27 µM in assay [4]. `NCc1ncc(S(=O)(=O)c2cc3ccccc3c3ccccc23)s1` had an IC50 in assay [4] of 46 µM. In the case of `CS(=O)(=O)c1cc(-c2cccnc2)cc(S(=O)(=O)c2ccc(CN)s2)c1`, the IC50 in assay [3] was more than 100 µM. With `CS(=O)(=O)c1cc(-c2ccccc2)cc(S(=O)(=O)c2ccc(CN)s2)c1`, the “inhibition of MAO-B” value in assay [3] is “neither inhibits”. In addition, the “inhibition of MAO-A” value in assay [4] was “neither inhibits”. For `CCc1cc(-c2c(C)noc2C)cc(S(=O)(=O)c2cnc(CN)s2)c1`, in assay [1], the IC50 was 0.28 µM. Same read-out and setting: as for `CCc1cc(-c2ccsc2)cc(S(=O)(=O)c2cnc(CN)s2)c1`, the figure is 0.29 µM. The same measure, in the same setting: as for `CCc1cc(-c2ccc[n+]([O-])c2)cc(S(=O)(=O)c2cnc(CN)s2)c1`, the figure is 0.15 µM.

The values above are taken from patent US10807974B2, “Methylamine derivatives as lysysl oxidase inhibitors for the treatment of cancer” (The Institute of Cancer Research: Royal Cancer Hospital, priority 2016, dated 2020).
